In PubChem BioAssay AID651589 (Sanford-Burnham Center for Chemical Genomics, 2012):
The entries are a selection whose mix differs from that of the whole data set. Active and inactive are the calls of the source.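 How the source made its calls: active means mean inhibition of the reporter signal across four replicates at the single tested dose of 50% or more; inactive means the rest.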

Test: HIF-1a luciferase reporter signal reduction – MiaPaCa-2 cells, single concentration, counter-screen for HIF-2a inhibitor project, confirmation (AID 651589)
Settings: MiaPaCa-2 HIF-1a luciferase reporter, desferoxamine, overnight; at 18.8 µM; stronger effect = higher value

| Compound | inhibition |
| --- | --- |
| CCCCCCCCCCCCCCCC1C[N+](C)(C)CCOP(C)(=O)O1 (stereo unspecified) | active: 77.3% |
